# High-throughput results: PubChem BioAssay, National Center for Advancing Translational Sciences (NCATS)
# Only some compounds are listed: those with a hit (about 3.7% of all), similar ones and a draw of the others.
# Nrf2 activator = Nrf2 pathway activation. AREc32 ARE-luciferase reporter (MCF7-derived line), luminescence, 24 h. Potency, µM (titrated, usually from 46.1 µM), for the others: at the highest dose activation, actives largely listed as activators. 410,000 tested, 0.31% active; note: potency is the fitted concentration of half-maximal effect; % of control where 0% means no effect; nearly all actives have a fitted effect of over 65% in size
#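 For detection, Steady-Glo was added and plates sat 30 min at RT; before that, AREc32_Fluc cells grown overnight in OPTI-MEM/5% FBS had been treated with 23 nL compound for 24 hr at 37 deg C.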
# A549 tox = kills or reduces viability of A549 cells in Nrf2 counter-screen | Potency, µM (series often up to 46 µM), for inactives: at the highest dose activity change, negative = cytotoxicity, actives largely listed as inhibitors | AID 504648 | 390,000 tested, 0.16% active | A549 ARE-Fluc cells, CellTiter-Fluor viability, 18-24 h; note: potency is the fitted concentration of half-maximal effect; % is set by controls: 0 for no effect and ±100 for the full control effect
#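 A549 ARE-Fluc cells in 5% FBS OPTI-MEM, 5000 cells/well, rested 2 h then exposed to compounds in concentration-response for 18-24 h at 37 °C. Viability by CellTiter-Fluor fluorescence (Ex 405/Em 525) after 30 min; luciferase luminescence (BugLite, 15 min, RT) read afterwards.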
# p53 reactivator = re-activators of mutant p53. H1299 p53-A138V BP100-luciferase reporter, luminescence, 24 h. Potency, µM (titrated, usually from 92.2 µM), without a hit: top-dose activity change, positive = activation, actives largely listed as activators. 320,000 tested, 0.063% active; note: potency is the fitted concentration of half-maximal effect; % of control where 0% means no effect; nearly all actives have a fitted effect of over 45% in size
#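 H1299 (p53-null), stable ts p53-A138V + BP100-Luc; 1000 cells/well, Opti-MEM/10% FBS; cpd 4 pt, 1:5; 24 h, 37 deg C, 5% CO2; detection reagent 10 min RT; luminescence.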
# Nrf2 block = blocks Nrf2 signaling; A549 ARE-Fluc reporter, luciferase luminescence, 18-24 h; Potency, µM (top dose mostly 46 µM), without a hit: at the top dose activity change, negative = inhibition, hits mostly inhibitors; 360,000 tested, 2.1% active; AID 504444; note: potency is the fitted concentration of half-maximal effect; % is set by controls: 0 for no effect and ±100 for the full control effect; nearly all actives have a fitted effect of over 60% in size
#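 Reporter: ARE-Fluc in A549. Exposure: 18-24 h, 37 °C, 5% CO2, 5% FBS OPTI-MEM. Readouts: fluorescent cytotoxicity (CellTiter-Fluor), then luminescent Nrf2 signal after BugLite.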
# ClpP mod = qHTS Assay for Activators of ClpP; ATP-dependent Clp protease proteolytic subunit (Bacillus subtilis (strain 168)), P80244; purified B. subtilis ClpP, FRET peptide cleavage, 20 min; Potency, µM (doses to about 57.5 µM), for the others: at the top dose activity change, negative = active; 340,000 tested, 1.9% active; AID 651965, 2013; active = well fitted falling curve with a large enough effect; inconclusive = small, poorly fitted or top-dose-only effect; inactive = no such curve, though single readings can be large or run the other way; note: potency is the fitted concentration of half-maximal effect; the source files actives as falling curves though it sought activators and does not explain the sign; nearly all actives have a fitted effect of over 65% in size
#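 Buffer: 100 mM Tris/HCl pH8, 100 mM KCl, 0.05% low protease BSA, 2.5% glycerol, 0.01% Tween-20. ClpP 10 microg/mL final; 20 min RT; delta FRET normalized to ADEP and DMSO controls.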
# miR-21 reporter = miR-21 reporter, rising signal. HeLa miR-21 FLuc reporter, luciferase, 48 h. Potency, µM (titrated, usually from 38.3 µM), without a hit: at the top dose reporter change, positive = more light. 340,000 tested, under 10 active. AID 2288; active = well fitted rising curve with a large enough effect; inconclusive = small, poorly fitted or top-dose-only effect; inactive = no such curve, though single readings can be large or run the other way;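 also: % of control where 0% means no effect; miR-21 action dims this reporter so a rising signal means less miR-21 action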
#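 Compounds were titrated across several concentrations (up to approximately 40 uM) and incubated 48 hours with HeLa miR-21-FLuc reporter cells (miR-21 target sequence downstream of FLuc, endogenous miR-21). Readout was firefly luciferase luminescence after lytic detection reagent.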
# Active calls of the source: *; ? = inconclusive; . = not tested or not shown; [ ] = dose if it differs, or a comment. Unless noted, calls come from the whole dose curve; as a rule, active = well fitted curve in the direction sought with a large enough effect; inconclusive = small, poorly fitted or top-dose-only effect, or another doubt; inactive = no such curve, though single readings can be large; an effect the other way counts as inactive or inconclusive.
SMILES,Nrf2 activator,A549 tox,p53 reactivator,Nrf2 block,ClpP mod,miR-21 reporter
COc1cccc(NS(=O)(=O)c2ccc3c(c2)[C@H]2C=CC[C@H]2[C@@H](c2ccccc2Cl)N3)c1,-2%,-19%,.,21µM*,-1%,-9%
N=c1n(CCN2CCOCC2)c2ccccc2n1CC(=O)c1cccc([N+](=O)[O-])c1,3.2µM*,-2%,-6%,1%,1%,4%
O=C(Nc1nc2c(s1)CCCC2)c1ccc(Br)o1,13µM*,-1%,?,?,0%,-6%
Cc1ccc(C(=O)Nc2nc3c(s2)CCCC3)o1,5%,-10%,?,?,-1%,-10%
Cc1ccc(C(=O)Nc2ccc3c(c2)C(=O)N(CC2CCCO2)C3=O)cc1 (stereo not given),1%,-1%,-1%,?,0%,0%
O=C(Nc1ccc2c(c1)C(=O)N(CC1CCCO1)C2=O)c1ccccc1Br (stereo not given),0%,1%,6%,5%,22µM*,2%
CC(C)c1csc(CN2CCCC(CNC(=O)c3cccc4ccccc34)C2)n1 (stereo not given),1%,-10%,0%,16µM*,-5%,6%
CC(C)c1csc(CN2CCCC(CCC(=O)NCc3ccccc3F)C2)n1 (stereo not given),0%,13%,-3%,-9%,1%,24%
CN(C)c1ccc(/C=C2\CCC/C(=C\c3ccccc3)C2=O)cc1,0%,-14%,?,5%,103%,-11%
COc1ccc(/C=C2\CCC/C(=C\C=N\N(C)C)C2=O)cc1,14µM*,-14%,?,-26%,0%,28%
CN(C)/N=C/C=C1\CCC/C(=C\c2ccc(F)c(F)c2)C1=O,18µM*,-28%,-10%,?,.,?
COc1ccc(/C=C2\CCCCC2=O)cc1,13%,3%,.,11%,.,.
Cc1noc(C)c1S(=O)(=O)Nc1ccc(C(=O)Nc2ccc(C(C)C)cc2)cc1,0%,2%,.,-21%,-1%,?
CC(=O)c1oc2ccccc2c1N,0%,-8%,0%,-9%,-17%,-3%
COC(=O)c1oc2ccccc2c1N,3%,-3%,5%,15%,25µM*,-25%
CC(C)COc1ccc(C(=O)Nc2sc3c(c2C(=O)O)CC(C)(C)OC3)cc1,0%,?,1%,5.8µM*,.,22%
CC1(C)Cc2c(sc(NC(=O)c3ccccc3)c2C(=O)O)CO1,0%,-17%,-1%,?,.,18%
CC(=O)c1ccc(N2CCN(c3ccc(C(F)(F)F)cn3)CC2)cc1,0%,0%,-14%,9.2µM*,-11%,-10%
CCOC(=O)N1CCN(c2ccc(S(=O)(=O)N3CCOCC3)cn2)CC1,-1%,0%,-3%,?,28µM*,.
O=S(=O)(c1ccc(N2CCOCC2)nc1)N1CCOCC1,0%,-2%[1.84 µM],2%,11%,-5%,-2%
CCOC(=O)N1CCN(C(=O)CN(Cc2ccccc2)S(C)(=O)=O)CC1,-1%,2%,-1%,5%,0%,0%
Cc1ccc(C(C)NC(=O)CSc2ccc(S(=O)(=O)N3CCOCC3)cn2)cc1C (stereo not given),2%,6%,-8%,-7%,25µM*,.
CCOC(=O)N1CCN(c2ccc(S(=O)(=O)N(Cc3ccccc3)Cc3ccccc3)cn2)CC1,2%,-16%,-2%,16µM*,?,1%
Cc1cc(Nc2cc(Cl)ccc2C)n2nc(-c3ccccc3)nc2n1,0%,2%,.,3%,24%,-4%

# Single records (already shown). Order of values: Nrf2 activator, A549 tox, p53 reactivator, Nrf2 block, ClpP mod, miR-21 reporter
# Entry for CC(=O)c1oc2ccccc2c1N → 0%, -8%, 0%, -9%, -17%, -3%
# Entry for CC1(C)Cc2c(sc(NC(=O)c3ccccc3)c2C(=O)O)CO1 → 0%, -17%, -1%, ?, ., 18%
# Entry for Cc1cc(Nc2cc(Cl)ccc2C)n2nc(-c3ccccc3)nc2n1 → 0%, 2%, ., 3%, 24%, -4%
# Entry for CC(=O)c1ccc(N2CCN(c3ccc(C(F)(F)F)cn3)CC2)cc1 → 0%, 0%, -14%, 9.2µM*, -11%, -10%
# Entry for O=S(=O)(c1ccc(N2CCOCC2)nc1)N1CCOCC1 → 0%, -2%[1.84 µM], 2%, 11%, -5%, -2%

# (continued)
SMILES,Nrf2 activator,A549 tox,p53 reactivator,Nrf2 block,ClpP mod,miR-21 reporter
Cc1ccc(S(=O)(=O)N2CCOCC2)cc1C(=O)N1CCN(c2ccc(C(F)(F)F)cn2)CC1,4%,0%,0%,26µM*,.,.
CCN(CC)S(=O)(=O)c1ccc(N2CCN(CCO)CC2)nc1,0%,0%,4%,?,-16%,-10%
CCN(CC)S(=O)(=O)c1ccc(N2CCN(c3ccccc3O)CC2)nc1,2%,-1%,4%,18µM*,.,18%
COC(=O)c1sccc1-c1ccc(/C=N/OC(=O)c2ccccc2)o1,7%,-5%,0%,2%,32µM*,-20%
CC1(C(=O)NS(=O)(=O)c2ccccc2C(F)(F)F)CCN1C(=O)CC1CCCC1 (stereo not given),-1%,.,.,.,-2%,.
COc1cc(NC(=O)CC2C(=O)N(c3cccc(C)c3)C(=O)N2Cc2cccs2)cc(OC)c1 (stereo not given),4%,-7%,.,0%,-2%,21%
Cc1cc(C)nc(SCCC(=O)Nc2ccccc2Cl)n1,0%,0%,1%,12µM*,0%,-10%
Cc1cc(C)nc(SCCC(=O)Nc2cccc3ccccc23)n1,0%,-10%,-3%,-23%,-1%,-9%
Cc1ccc[n+](CC2OCc3ccccc3CO2)c1,-1%,0%,-2%,7.3µM*,.,1%
CCc1ccccc1NC(=O)c1sc2nc(C)cc(C)c2c1N,2%,2%,.,-4%,32µM*,-21%
CCNC(=O)C1(C)CCN1CCS(=O)(=O)c1ccc(C)cc1 (stereo not given),-1%,.,.,.,1%,.
O=S1(=O)c2cccc3cccc(c23)N1Cc1nnc(-c2ccccc2Br)o1,4%,-22%,-25%,21µM*,?,-4%
COc1ccc(N2C(=O)c3ccccc3NC2c2ccc(OC)c(Cn3nnc4ccccc43)c2)cc1 (stereo not given),4%,-21%,?,2%,32µM*,-66%
COc1ccc(C2Nc3ccccc3C(=O)N2c2ccc(C)cc2)cc1COc1ccccn1 (stereo not given),5%,2%,.,?,32µM*,-57%
CCN1CCc2c(sc(-n3cccc3)c2C(C)NC(=O)Nc2ccc(C(=O)OC)cc2)C1 (stereo not given),12%,-10%,.,6%,-23%,-18%
CCOC(=O)[C@H]1[C@H]2COc3ccc(Cl)cc3[C@@H]2N2C(=O)c3ccc(F)cc3NC(=O)[C@@]12C,3%,-8%,-10%,23µM*,0%,.
CCOC(=O)[C@H]1[C@H]2COc3ccc(Cl)cc3[C@@H]2N2C(=O)c3ccc(C)cc3NC(=O)[C@@]12C,0%,-10%,-5%,16%,-6%,.
COc1cc2c(NC3CCN(C)CC3)nc(N3CCCCC3)nc2cc1OCCOCCN(C)C,.,.,.,.,4%,.
COc1ccc(-c2cnc3n2CCCCC3)cc1,-1%,-4%,-1%,-12%,-1%,3%
